The values that follow are results of earlier work, collected in US20180303845A1, “USE OF TLR8 AGONISTS TO TREAT CANCER” (VentiRx Pharmaceuticals, Inc., priority 2015, published 2018).

The test system of data set [1] is CD4^+FOXP3^+ intratumoral Treg. Conditions: neoadjuvant single-agent cetuximab, HNC patients; cited from earlier work.
Another data set concerns CTLA-4^+FOXP3^+ Treg. The following applies: in combination with TGF-β and T cell receptor triggering; cited from earlier work.

For “Cetuximab: anti-EGFR monoclonal antibody”, the “frequency of CD4^+FOXP3^+ intratumoral Treg expressing CTLA-4, CD39 and TGF-β” value in data set [1] was “increased”. In addition, the “CTLA-4^+FOXP3^+ Treg in vitro” value in the data set with CTLA-4^+FOXP3^+ Treg was “expanded”.
